In paper PMC7611940, “A Conformation Selective Mode of Inhibiting SRC Improves Drug Efficacy and Tolerability” (Cancer Research, 2021):

Legend:
Assay in all cases: biochemical
Details in all cases: read-out: % remaining activity
[1] = biological target: T1, CHK2 (Homo sapiens, UniProt O96017)
T1 construct: gene CHEK2

[2] = biological target: CDK9/cyclin T1 (Homo sapiens, UniProt P50750)
[3] = biological target: WNK2 (Homo sapiens, UniProt Q9Y3S1)
[4] = biological target: T2, MLCK (Homo sapiens, UniProt Q15746)
T2 construct: gene MYLK

[5] = biological target: CAMK1g (Homo sapiens, UniProt Q96NX5)
[6] = biological target: CAMK1d (Homo sapiens, UniProt Q8IU85)
[7] = biological target: NEK9 (Homo sapiens, UniProt Q8TD19)
[8] = biological target: MAP4K1 (Homo sapiens, UniProt Q92918)
[9] = biological target: CAMK2g (Homo sapiens, UniProt Q13555)
[10] = biological target: T3, FAK (Homo sapiens, UniProt Q05397)
T3 construct: gene PTK2

[11] = biological target: NEK11 (Homo sapiens, UniProt Q8NG66)
[12] = biological target: PAK3 (Homo sapiens, UniProt O75914)
[13] = biological target: T4, PKA (Homo sapiens, UniProt P17612)
T4 construct: gene PRKACA

[14] = biological target: MYO3b (Homo sapiens, UniProt Q8WXR4)
[15] = biological target: FLT1 (Homo sapiens, UniProt P17948)
[16] = biological target: T5, RSK4 (Homo sapiens, UniProt Q9UK32)
T5 construct: gene RPS6KA6

[17] = biological target: SRPK2 (Homo sapiens, UniProt P78362)
[18] = biological target: PLK3 (Homo sapiens, UniProt Q9H4B4)
[19] = biological target: AURKA (Homo sapiens, UniProt O14965)
[20] = biological target: MAPKAPK2 (Homo sapiens, UniProt P49137)
[21] = biological target: RAF1 (Homo sapiens, UniProt P04049)
[22] = biological target: T6, SSTK (Homo sapiens, UniProt Q9BXA6)
T6 construct: gene TSSK6

[23] = biological target: T7, PKCg (Homo sapiens, UniProt P05129)
T7 construct: gene PRKCG

[24] = biological target: HIPK4 (Homo sapiens, UniProt Q8NE63)
[25] = biological target: T8, MST3 (Homo sapiens, UniProt Q9Y6E0)
T8 construct: gene STK24

[26] = biological target: PHKg2 (Homo sapiens, UniProt P15735)
[27] = biological target: PKN3 (Homo sapiens, UniProt Q6P5Z2)
[28] = biological target: WNK3 (Homo sapiens, UniProt Q9BYP7)
[29] = biological target: T9, MEKK2 (Homo sapiens, UniProt Q9Y2U5)
T9 construct: gene MAP3K2

[30] = biological target: EPHB3 (Homo sapiens, UniProt P54753)
[31] = biological target: STK38 (Homo sapiens, UniProt Q15208)
[32] = biological target: T10, CK1d (Homo sapiens, UniProt P48730)
T10 construct: gene CSNK1D

[33] = biological target: TGFBR1 (Homo sapiens, UniProt P36897)
[34] = biological target: T11, MRCKa (Homo sapiens, UniProt Q5VT25)
T11 construct: gene CDC42BPA

[35] = biological target: EGFR (Homo sapiens, UniProt P00533)
[36] = biological target: ITK (Homo sapiens, UniProt Q08881)

remaining activity at 1 µM [1]: 98.9%
remaining activity at 1 µM [2]: 109%
remaining activity at 1 µM [3]: 105%
remaining activity at 1 µM [4]: 110%
remaining activity at 1 µM [5]: 91.5%
remaining activity at 1 µM [6]: 96.7%
remaining activity at 1 µM [8]: 99.8%
remaining activity at 1 µM [9]: 102%
remaining activity at 1 µM [10]: 114%
remaining activity at 1 µM [11]: 75.3%
remaining activity at 1 µM [12]: 87.3%
remaining activity at 1 µM [13]: 105%
remaining activity at 1 µM [14]: 105%
remaining activity at 1 µM [15]: 106%
remaining activity at 1 µM [16]: 83.3%
remaining activity at 1 µM [17]: 100%
remaining activity at 1 µM [18]: 105%
remaining activity at 1 µM [19]: 102%
remaining activity at 1 µM [20]: 97%
remaining activity at 1 µM [21]: 19.6%
remaining activity at 1 µM [22]: 103%
remaining activity at 1 µM [23]: 96.7%
remaining activity at 1 µM [24]: 105%
remaining activity at 1 µM [25]: 110%
remaining activity at 1 µM [26]: 95.3%
remaining activity at 1 µM [27]: 98.5%
remaining activity at 1 µM [28]: 90.3%
remaining activity at 1 µM [29]: 99.3%
remaining activity at 1 µM [30]: 93.1%
remaining activity at 1 µM [31]: 176%
remaining activity at 1 µM [32]: 102%
remaining activity at 1 µM [33]: 110%
remaining activity at 1 µM [34]: 97.9%
remaining activity at 1 µM [35]: 117%
remaining activity at 1 µM [36]: 98.2%
SMILES: COc1cc(-c2nn(CCN3CCC(N(C)C)CC3)c3ncnc(N)c23)ccc1NC(=O)OC(C)(C)C [eCF506]
remaining activity at 1 µM [7]: 97.1%
